{"source": "patent US11274129B2", "about": "“Methods for protein tyrosine phosphorylation profiling with variant SH2 domains” (priority 2016, dated 2022)", "key": {"[1]": {"tested_on": "original (trastuzumab-sensitive) SK-BR-3 clone", "assay": "MTT cell proliferation assay", "type": "cell-based, human", "settings": "original SK-BR-3 clone; 4 μg/ml trastuzumab, 48 hours (FIG. 13A)", "method": "SK-BR-3 cells were grown in RPMI 1640 medium supplemented with 10% FBS, 100 μg/ml penicillin/streptomycin and L-glutamine. Cells were incubated at 37° C. in a humidified atmosphere containing 5% carbon dioxide.\nDrug sensitivity was measured by MTT cell proliferation assays."}, "[2]": {"tested_on": "trastuzumab-resistant SK-BR-3 clone", "assay": "MTT cell proliferation assay", "type": "cell-based, human", "settings": "4 μg/ml trastuzumab, 48 hours (FIG. 13A)"}}, "data": [{"substance": "trastuzumab", "values": [{"measurement": "relative cell proliferation (drug sensitivity)", "setting": "[1]", "result": "sensitive"}, {"measurement": "relative cell proliferation (drug sensitivity)", "setting": "[2]", "result": "less sensitive"}]}]}
